Test results as given in article PMC8949375, “Design, Green Synthesis and Tailoring of Vitamin E TPGS Augmented Niosomal Nano-Carrier of Pyrazolopyrimidines as Potential Anti-Liver and Breast Cancer Agents with Accentuated Oral Bioavailability” (Pharmaceuticals, 2022).

Tests used:
[1] = tested on: VEGF protein expression level in HepG2 cell line; experiment: VEGF ELISA in HepG2 cell culture supernatant; assay type: cell-based, human; parameters: concentration or dose not given beside the values; settings: compared to control
Procedure: Total protein was assayed using the method described by Bradford. The VEGF ELISA Assay Kit (VEGF) and ELISA Kit, (#VGF31-[…]) were purchased from (Eagle Biosciences CO., LTD, Amherst, NH, USA). The kit is a sandwich enzyme immunoassay for the in vitro quantitative determination of VEGF concentrations in cell culture supernates, serum and plasma according to the manufacturer's instructions.

[2] = tested on: VEGFR-2 protein expression level in HepG2 cell line; experiment: Human VEGF receptor-2 ELISA in HepG2; assay type: cell-based; parameters: concentration or dose not given beside the values; settings: compared to control
Procedure: Total protein was assayed using the method described by Bradford. The Human VEGF receptor-2 ELISA Kit (ab213476), (96 tests) was purchased from (abcam®, Waltham, MA, USA). The kit is a sandwich enzyme immunoassay for the in vitro quantitative measurement of human VEGFR-2 in tissue homogenates, cell lysates and other biological fluids according to the manufacturer’s instructions.

## CNC(=O)c1cc(Oc2ccc(NC(=O)Nc3ccc(Cl)c(C(F)(F)F)c3)cc2)ccn1 [Sorafenib, reference compound]
[1]; 24 h
  VEGF 24 h % Inhibition: 67.7%
[1]; 72 h
  VEGF 72 h % Inhibition: 73.8%
[2]; 24 h
  VEGFR-2 24 h % Inhibition: 69%
[2]; 72 h
  VEGFR-2 72 h % Inhibition: 70.4%
